Measured values published in patent publication US8993631B2, “Method of treating contrast-induced nephropathy” (Novartis AG, priority 2010, dated 2015).

Protein sequences, listed by entry. Tags and fused reporters are not part of them.
UniProt P08473, whole entry: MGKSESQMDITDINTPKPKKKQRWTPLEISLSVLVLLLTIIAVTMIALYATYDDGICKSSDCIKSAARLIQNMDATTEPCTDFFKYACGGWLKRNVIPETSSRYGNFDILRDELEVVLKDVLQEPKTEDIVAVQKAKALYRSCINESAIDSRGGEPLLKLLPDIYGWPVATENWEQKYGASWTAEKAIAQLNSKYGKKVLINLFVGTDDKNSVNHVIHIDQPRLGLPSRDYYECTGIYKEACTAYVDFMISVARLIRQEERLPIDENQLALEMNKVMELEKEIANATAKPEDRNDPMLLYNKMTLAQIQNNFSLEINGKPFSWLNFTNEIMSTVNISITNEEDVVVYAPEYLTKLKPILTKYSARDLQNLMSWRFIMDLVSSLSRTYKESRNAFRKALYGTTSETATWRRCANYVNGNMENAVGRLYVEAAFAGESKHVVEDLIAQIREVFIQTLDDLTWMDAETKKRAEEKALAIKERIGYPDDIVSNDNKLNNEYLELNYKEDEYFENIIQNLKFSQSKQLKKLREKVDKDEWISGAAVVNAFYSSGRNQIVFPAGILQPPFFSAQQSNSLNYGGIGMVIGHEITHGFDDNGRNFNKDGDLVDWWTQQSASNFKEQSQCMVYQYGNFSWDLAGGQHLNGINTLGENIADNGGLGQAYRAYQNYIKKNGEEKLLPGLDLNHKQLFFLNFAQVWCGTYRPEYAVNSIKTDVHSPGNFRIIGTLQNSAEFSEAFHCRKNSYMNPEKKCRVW

Molecular target: recombinant human neutral endopeptidase (NEP, EC 3.4.24.11) (Homo sapiens (Human), UniProt P08473)
Assay: In vitro inhibition of recombinant human neutral endopeptidase (fluorescence lifetime assay)
Type: biochemical
Details: read-out: Human NEP IC50; 1 hour pre-incubation, effect determined after 1 hour at room temperature, pH 7.4

**Q.** With `O=C(O)C[C@@H](Cc1ccc(-c2cccc(Cl)c2)cc1)NC(=O)c1cc(O)no1` as the compound, how does the IC50 read?
**A.** 0.07 nM
